Source: patent publication US20050075361A1 (priority 2002, published 2005)
Where two headings read alike, the source gives them in different places.

Test system: male Sprague-Dawley rats
Details: for Analgesic duration: IM, plantar test; for onset of action: intramuscular injection, sesame oil
[1] = dose 0.3 μM/kg, sesame oil solution

With Buprenorphine decanoate as the substance, how does the Analgesic duration (dose 0.6 μM/kg) read?
Its Analgesic duration is 96 h.

With Buprenorphine palmitate as the substance, how does the Analgesic duration (dose 0.6 μM/kg) read?
The Analgesic duration was 96 h.

How did the Analgesic duration [1] turn out when Dibuprenorphine pimelate was run?
The Analgesic duration was 72 h.

What about the onset of action (dose 0.3 μM/kg) of the same substance?
The onset of action was 2 h.

How did the Analgesic duration [1] turn out when Dibuprenorphine sebacoyl ester was run?
Its Analgesic duration is 96 h.

And the onset of action (dose 0.3 μM/kg)?
Its onset of action is 2 h.
